Ab-14 light chain CDR variants: yeast mating affinities

All variants were tested on one target, the spike HR2 peptide PDVDLGDISGINAS (SARS-CoV-2).

Ab-14 is the parent antibody, in scFv form: VH, then a 15-residue (Gly4Ser)3 linker, then VL. The heavy chain is unchanged in all variants.
VH: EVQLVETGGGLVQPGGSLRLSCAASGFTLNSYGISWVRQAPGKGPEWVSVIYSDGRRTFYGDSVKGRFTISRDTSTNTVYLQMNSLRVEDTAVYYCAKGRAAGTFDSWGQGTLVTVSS
VL: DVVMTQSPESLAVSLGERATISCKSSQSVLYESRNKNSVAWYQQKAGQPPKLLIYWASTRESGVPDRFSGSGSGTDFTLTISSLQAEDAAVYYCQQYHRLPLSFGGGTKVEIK

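Phage display of a naive human antibody library on the peptide gave the parent. The library (AAYL50) carries one to three amino acid substitutions per variant, with no insertions or deletions. Affinity was read by AlphaSeq, a pooled yeast mating assay with surface-displayed partners. After mating in shaken culture at 30 °C for 16 h, diploids were selected and their barcode pairs sequenced. The ratio of observed to expected reads was calibrated, replicate by replicate, on BCL2-family standards whose Kd was known from biolayer interferometry. Mating was done three times.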

The parent's light chain CDRs are KSSQSVLYESRNKNSVA, WASTRES, QQYHRLPLS; each variant's own CDRs replace them letter for letter. Scale: log10 of Kd in nM, estimated from mating counts; low values are strong binders. A mean of the replicates is given; it leaves out those without a signal. An entry "nd" has no value in the source: the pair was not observed among the diploids in any replicate. This suggests poor binding but is not conclusive. As a blank, each scFv also met three strains without target: over library AAYL50, 18% of these pairings were detected, typically at 4.19 and seldom below 2.99. For each scFv, signals with the empty controls are counted beside the result.

Read-out 5.83 (1 of 3 replicates; controls 4 of 9), from KSSQTVLYESRNKNSVA / RPSTRES / QQYHRLPLS.
Read-out 1.90 (3 of 3 replicates; controls 2 of 9), from KSSQSVLYESTNKNSVA / VASTRIS / QQYHRLPLS.
Read-out 3.04 (3 of 3 replicates; controls 6 of 9), from KSSQSCLYWSRNKNSVA / WASTREF / QQYHRLPLS.
Read-out 3.90 (2 of 3 replicates; controls 2 of 9), from KSSQSVLYESRNKNSAA / WASTRES / QQYCRPPLS.
Read-out 0.12 (3 of 3 replicates; controls 0 of 9), from KSSQSVLYESRNKNSVA / EAGTRER / QQYHRLPLS.
Read-out 1.01 (3 of 3 replicates; controls 1 of 9), from KSLQSVLYESRNKNSVA / WADTRES / QQYHQLPLS.
Read-out 4.46 (1 of 3 replicates; controls 2 of 9), from KSSQSVLYESRNKNSVA / WPSTRES / MQYHRLPLS.
Read-out 3.20 (3 of 3 replicates; controls 2 of 9), from KSSQSVLYESPNKNSVA / AASTRES / QQYHRLSLS.
Read-out 1.38 (3 of 3 replicates; controls 0 of 9), from KSSQSVLDESRNKNSVA / WASTREI / QQYHRLGLS.
Read-out nd (0 of 3 replicates; controls 1 of 9), from KSSQSVLYESRTKNSRL / WASTRES / QQYHRLPLS.
Read-out 3.12 (3 of 3 replicates; controls 0 of 9), from KSSQSVLKESRNKNSVA / WAVQRES / QQYHRLPLS.
Read-out 2.08 (2 of 3 replicates; controls 0 of 9), from KCSQSVLYESRNKNSVA / WASTREF / QQYQRLPLS.
Read-out nd (0 of 3 replicates; controls 1 of 9), from KSSQSVLYESRNKNLVA / WASFRES / QQYHNLPLS.
Read-out nd (0 of 3 replicates; controls 0 of 9), from KSSQSVLYESRNKNSVA / WAITRES / QQYHRLPSS.
Read-out 2.58 (3 of 3 replicates; controls 0 of 9), from KSSQSVLYESRNKNSVA / WAVTRED / QQRHRLPLS.
Read-out 2.05 (3 of 3 replicates; controls 1 of 9), from KSSQSNLYESRNKNSVA / WASTRES / QQYHKLDLS.
Read-out nd (0 of 3 replicates; controls 1 of 9), from KSSQSVLYHSRNKNSPA / WASTRES / QQYTRLPLS.
Read-out nd (0 of 3 replicates; controls 1 of 9), from HSSQSVLYESRNKNSQA / WASTRES / QQYHRLPLS.
Read-out 1.74 (3 of 3 replicates; controls 0 of 9), from KSSQSYLYESRTKNSVA / WASHRES / QQYHRLPLS.
Read-out nd (0 of 3 replicates; controls 1 of 9), from KSSQSVLYEFRNKNSVA / WQSTRES / QQYERLPLS.
Read-out nd (0 of 3 replicates; controls 0 of 9), from KSSQSVGYESRNKNSGA / WASTRES / QQYERLPLS.
Read-out 1.44 (3 of 3 replicates; controls 2 of 9), from KNHASVLYESRNKNSVA / WASTRES / QQYHRLPLS.
Read-out nd (0 of 3 replicates; controls 0 of 9), from HSSQSVLYESRNKNSGA / WASTVES / QQYHRLPLS.
Read-out 2.39 (3 of 3 replicates; controls 1 of 9), from KSSQSVLHESRNKNSVA / WASHHES / QQYHRLPLS.
Read-out nd (0 of 3 replicates; controls 0 of 9), from KSSQSVLYESRNKDSVA / WASTRES / QQYHRAPLS.
Read-out 2.21 (3 of 3 replicates; controls 3 of 9), from KSSQSVLYESRNKNSVA / WAETRES / WQYHRLPYS.
Read-out 3.51 (2 of 3 replicates; controls 4 of 9), from KSSQSVLYVSRYKNSVA / WASTRES / YQYHRLPLS.
Read-out 2.49 (3 of 3 replicates; controls 3 of 9), from KSVQSVLYEKRNKNSVA / WAETRES / QQYHRLPLS.
Read-out 4.66 (3 of 3 replicates; controls 3 of 9), from KSSQSVLYESRNKNSRA / WASDRES / QQYHSLPLS.
Read-out 4.54 (1 of 3 replicates; controls 4 of 9), from KSSQSPLYESRDKNSDA / WASTRES / QQYHRLPLS.
Read-out nd (0 of 3 replicates; controls 0 of 9), from KSSQSVLYESRNKLSVA / WASTREH / QQYHRLWLS.
Read-out 0.59 (3 of 3 replicates; controls 6 of 9), from KSSQSVLYEGRNKNSVA / QASTRES / QWYHRLPLS.
Read-out 1.03 (3 of 3 replicates; controls 2 of 9), from KSSQSVLYEPENKNSVA / WASTRES / QQYHRLPLS.

The 4 strongest on average among those seen in every replicate, once more:

CDR-L1,CDR-L2,CDR-L3,"mean, log10 nM",replicates with signal,control signals
KSSQSVLYESRNKNSVA,EAGTRER,QQYHRLPLS,0.12,3/3,0/9
KSSQSVLYEGRNKNSVA,QASTRES,QWYHRLPLS,0.59,3/3,6/9
KSLQSVLYESRNKNSVA,WADTRES,QQYHQLPLS,1.01,3/3,1/9
KSSQSVLYEPENKNSVA,WASTRES,QQYHRLPLS,1.03,3/3,2/9

In this assay the parent's reference entry averaged 0.65; its copy inside this library read 1.68.

Source: Engelhart et al. 2022 (doi:10.1038/s41597-022-01779-4), MIT Lincoln Laboratory and A-Alpha Bio; data file from the FLAb repository.